# Laboratory results published in patent publication US12709645B2, “Targeting gene amplification in cancer using triplex formation as a therapeutic strategy” (Yale University, priority 2018, dated 2026).
# Tested on: BT474 human breast cancer tumors
# Assay: BT474 breast cancer subcutaneous xenograft model
# Type: in vivo, athymic nude mice
# Procedure: Six to seven-week old female BALB/c athymic, ovariectomized nude mice (Harlan Sprague-Dawley) were implanted with 0.72 mg, 60-day release 17β-estradiol pellets (Innovative Research). […] Mice were treated with 20 mg/kg body weight of MIX24, HER2-205 or trastuzumab in PBS by intraperitoneal (IP) injection (3 doses evenly administered over 7 days). Tumor volumes in each group were then monitored and mice were sacrificed when tumor volumes reached 1000 mm^3. Error bars represent standard error of the mean. Tumor tripling time was calculated as the time required for tumors to increase in volume […] over baseline (defined as tumor volume before administration of dose on first day of treatment). Harvested tumors were fixed in 10% neutral buffered formalin and processed by Yale Pathology Tissue Services for H&E, Caspase 3, HER2, and Ki67. Images were taken at 4× magnification.
substance,measurement,setting,value
trastuzumab [reference compound],tumor tripling time post-initial dose,"20 mg/kg IP, 3 doses over 7 days",24 ± 2.1 days
same,reduction in tumor volumes compared to controls,HER2-positive breast cancer xenografts,58%
